Data published in US20020160011A1, “ADJUVANT COMPOSITIONS FOR VACCINES” (priority 1997, published 2002).

Experiment: Ability of other cytokines to enhance the effect of the QS21/MPL adjuvant
Conditions: cytokine added in place of IL-12

In the case of “IL-2: other cytokine tested with the QS21/MPL adjuvant”, the “enhancement of the effect of the QS21/MPL adjuvant” value is reported as “unable to enhance”.
